Test results reported in publication PMC3772510 (ChemMedChem, 2011).

Amino acid sequences for entries named in this document (tags omitted).
UniProt Q00987, whole entry: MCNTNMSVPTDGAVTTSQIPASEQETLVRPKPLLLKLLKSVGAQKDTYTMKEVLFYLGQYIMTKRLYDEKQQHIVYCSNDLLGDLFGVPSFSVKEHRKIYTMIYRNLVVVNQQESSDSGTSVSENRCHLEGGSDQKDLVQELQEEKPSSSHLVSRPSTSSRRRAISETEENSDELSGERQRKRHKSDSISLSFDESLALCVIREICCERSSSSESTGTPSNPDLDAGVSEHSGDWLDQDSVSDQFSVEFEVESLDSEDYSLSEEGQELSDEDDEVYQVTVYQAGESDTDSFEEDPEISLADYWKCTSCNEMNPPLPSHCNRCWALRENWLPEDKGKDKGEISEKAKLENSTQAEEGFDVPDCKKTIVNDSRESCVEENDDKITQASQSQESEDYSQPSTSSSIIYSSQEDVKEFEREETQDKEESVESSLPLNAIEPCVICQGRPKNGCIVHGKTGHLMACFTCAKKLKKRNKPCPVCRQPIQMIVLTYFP

Target: Mdm2 (Homo sapiens, UniProt Q00987)
Assay: fluorescence polarisation assay, binding constants
Conditions: derived from Ki and molecular weight

## COc1ccc(C2=N[C@@H](c3ccc(Cl)cc3)[C@@H](c3ccc(Cl)cc3)N2C(=O)N2CCNC(=O)C2)c(OC(C)C)c1 [Nutlin-3a, nutlin-3a]
  binding efficiency index (BEI): 12.7
